Measured values reported in paper PMC4620681 (Bioorganic & medicinal chemistry letters, 2015).

The chains behind the UniProt entries cited, without tags or fusion partners. Where a name states a change or a piece, a line headed by the entry shows the natural chain unless it says otherwise.
UniProt P41145: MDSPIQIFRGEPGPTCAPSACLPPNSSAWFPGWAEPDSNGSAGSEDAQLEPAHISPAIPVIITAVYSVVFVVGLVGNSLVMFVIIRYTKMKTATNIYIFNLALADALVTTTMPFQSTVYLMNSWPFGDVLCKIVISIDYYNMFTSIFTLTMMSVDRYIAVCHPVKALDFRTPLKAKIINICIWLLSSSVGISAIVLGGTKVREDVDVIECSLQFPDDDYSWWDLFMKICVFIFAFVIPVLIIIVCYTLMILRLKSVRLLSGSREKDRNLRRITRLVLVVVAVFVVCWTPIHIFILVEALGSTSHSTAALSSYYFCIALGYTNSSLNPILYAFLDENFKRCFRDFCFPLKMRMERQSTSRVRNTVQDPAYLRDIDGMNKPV
UniProt P32300, whole entry: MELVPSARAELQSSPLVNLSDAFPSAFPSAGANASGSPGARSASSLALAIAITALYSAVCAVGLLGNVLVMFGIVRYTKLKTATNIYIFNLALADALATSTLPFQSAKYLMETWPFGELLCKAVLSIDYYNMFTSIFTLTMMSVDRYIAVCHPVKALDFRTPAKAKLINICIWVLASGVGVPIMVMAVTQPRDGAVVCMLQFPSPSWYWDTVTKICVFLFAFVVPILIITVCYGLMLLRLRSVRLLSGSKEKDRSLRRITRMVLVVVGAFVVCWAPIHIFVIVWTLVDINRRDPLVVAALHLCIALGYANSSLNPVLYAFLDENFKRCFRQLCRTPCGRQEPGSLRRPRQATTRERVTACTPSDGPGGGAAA

Target: human KOR (hKOR) (Homo sapiens, UniProt P41145)
Assay type: binding
Details: read-out: Ki ± SEM κ

Compound | Ki [nM]
COC[C@@]1(CCOCCI)C[C@@H](C(=O)OC)[C@]2(C)CC[C@H]3C(=O)O[C@H](c4ccoc4)C[C@]3(C)[C@H]2C1=O [Compound 14a] | 108 ± 19
COC[C@@]1(CCOCCI)C[C@@H](C(=O)OC)[C@]2(C)CC[C@@H]3C(=O)O[C@H](c4ccoc4)C[C@]3(C)[C@H]2C1=O [Compound 14b] | 316 ± 70

Target: mouse DOR (Mus musculus, UniProt P32300)
Assay type: binding
Details: read-out: Ki ± SEM δ

Compound | Ki [nM]
COC[C@@]1(C)C[C@@H](C(=O)OC)[C@]2(C)CC[C@@H]3C(=O)O[C@H](c4ccoc4)C[C@]3(C)[C@H]2C1=O [Compound 9b] | > 1000
COC[C@@]1(CCCCCI)C[C@@H](C(=O)OC)[C@]2(C)CC[C@@H]3C(=O)O[C@H](c4ccoc4)C[C@]3(C)[C@H]2C1=O [Compound 13b] | > 1000
COC[C@@]1(CCCCCI)C[C@@H](C(=O)OC)[C@]2(C)CC[C@H]3C(=O)O[C@H](c4ccoc4)C[C@]3(C)[C@H]2C1=O [Compound 13a] | > 1000
COC[C@@]1(C)C[C@@H](C(=O)OC)[C@]2(C)CC[C@H]3C(=O)O[C@H](c4ccoc4)C[C@]3(C)[C@H]2C1=O [Compound 9a, 2-methyl-2-methoxymethyl-salvinorin ether] | > 1000
